This note sets out measurements from publication PMC3288537 (ACS Chemical Biology, 2011).

Protein sequences, listed by entry. Tags and fused reporters are not part of them.
UniProt P51452, whole entry, species assumed: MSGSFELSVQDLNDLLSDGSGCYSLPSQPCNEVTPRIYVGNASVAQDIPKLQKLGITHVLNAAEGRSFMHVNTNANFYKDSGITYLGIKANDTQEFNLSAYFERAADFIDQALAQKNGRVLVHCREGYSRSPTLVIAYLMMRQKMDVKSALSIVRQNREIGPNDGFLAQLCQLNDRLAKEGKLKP

One test addresses VHR (Homo sapiens, UniProt P51452). The test is described as follows: Dose-response OMFP phosphatase assay, VHR. The format is biochemical. As to conditions: ratio of IC50 values.
In another test the target is T1, PTP1B (Homo sapiens, UniProt P18031).
T1 sequence (P18031 1-435): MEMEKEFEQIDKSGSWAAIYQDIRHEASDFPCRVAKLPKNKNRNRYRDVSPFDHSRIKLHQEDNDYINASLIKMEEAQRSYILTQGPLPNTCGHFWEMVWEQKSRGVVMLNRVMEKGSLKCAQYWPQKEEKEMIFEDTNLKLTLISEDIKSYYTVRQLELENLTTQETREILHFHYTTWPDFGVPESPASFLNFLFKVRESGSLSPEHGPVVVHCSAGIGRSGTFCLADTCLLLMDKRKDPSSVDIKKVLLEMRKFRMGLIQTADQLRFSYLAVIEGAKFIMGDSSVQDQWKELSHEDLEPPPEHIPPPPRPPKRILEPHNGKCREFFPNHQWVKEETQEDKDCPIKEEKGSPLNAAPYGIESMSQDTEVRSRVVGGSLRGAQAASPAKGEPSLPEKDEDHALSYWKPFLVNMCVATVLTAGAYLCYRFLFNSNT
Put plainly: Dose-response OMFP phosphatase assay, PTP1B. The format is biochemical. Conditions: ratio of IC50 values.

Structures are written as SMILES.

`O=C(O)c1ccccc1-c1ccc(/C=c2\sc3nc4cc(Br)cnc4n3c2=O)o1` [Compound 1]: at VHR, the “selectivity for HePTP over VHR” value is listed as 9 fold. Besides, the “selectivity for HePTP over PTP1B” value on PTP1B amounted to 8 fold.
